Measured affinities in a library of Ab-14 heavy chain variants

Values reported by Li et al. 2023, doi:10.1038/s41467-023-39022-2 (FLAb copy).

Binding partner: SARS-CoV-2 spike HR2 peptide, sequence PDVDLGDISGINAS.

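Phage display of a naive human antibody library on the peptide gave the parent. Designed CDR sequences, proposed from the first random library and measured here. Several design methods are mixed in this list. Affinity was read by AlphaSeq, a pooled yeast mating assay with surface-displayed partners. Binding brings cells together so that they mate, and sequencing counts the barcode pairs among the diploids. Each replicate has its own calibration line, from reference interactions of the BCL2 family. The assay was run in six technical replicates.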

Each scFv is VH, the linker GGGGSGGGGSGGGGS, VL, as in the parent Ab-14, and differs from it in the CDRs of the heavy chain only.
VH: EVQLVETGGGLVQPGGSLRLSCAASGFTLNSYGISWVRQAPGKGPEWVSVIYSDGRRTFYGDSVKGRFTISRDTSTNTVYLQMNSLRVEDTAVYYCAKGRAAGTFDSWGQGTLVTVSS
VL: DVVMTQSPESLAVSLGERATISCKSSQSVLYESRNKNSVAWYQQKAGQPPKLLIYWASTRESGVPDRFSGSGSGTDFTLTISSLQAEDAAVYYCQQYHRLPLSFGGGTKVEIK

Variants are written as CDR1, CDR2 and CDR3 of the heavy chain (limits as in the source). Parent: GFTLNSYGIS, VIYSDGRRTFYGDSVK, GRAAGTFDS. This list holds designs with more than six substitutions. Each Kd is an estimate from the mating assay, the geometric mean of the replicates in which the pair was seen; lower is stronger. "nd" marks a missing value. The strain was present, yet no cells mated with the target were sequenced in any replicate, which points to weak or no binding. The list is sorted by this average, lowest first, undetected variants last.

GFDLNEYGIS, VIYADGRRTFYTDSVK, GGNAGTFDQ: 42 pM (6 of 6 replicates).
GFDLDEYGIS, VIYADGQRTAYADDVK, GNVAGTFDQ: 53 pM (6 of 6 replicates).
GFDLNEYGIS, VIYADGRRTFYTDSVK, GANAGTFDV: 130 pM (6 of 6 replicates).
GFDLNEYGIS, VIYADGMRTAYADSVK, GKVAGTFNV: 190 pM (6 of 6 replicates).
GFDLNEYGIS, VIYADGKRTAYIDSVK, GNVAGTFDI: 190 pM (6 of 6 replicates).
GFDLDEYGIS, VIYADGMRTVYADSVK, GQNAGTFDI: 200 pM (6 of 6 replicates).
GFDLNEYGIS, VIYADGVRTYYADSVK, GQNAGTFDI: 220 pM (6 of 6 replicates).
GFDLDEYGIS, VIYADGQRTAYADDVK, GEVAGTFDV: 240 pM (6 of 6 replicates).
GFDLNEYGIS, VIYADGMRTFYTDSVK, GEQAGTFDS: 270 pM (6 of 6 replicates).
GFDLDEYGIS, VIYADGMRTAYANSVK, GEVAGTFDV: 370 pM (6 of 6 replicates).
GFDLNEYGIS, VIYADGKRTYYADSVK, GENAGTFDI: 380 pM (6 of 6 replicates).
GFDLNEYGIS, VIYADGKRTAYSDDVK, GNQAGTFDV: 420 pM (6 of 6 replicates).
GFDLNEYGIS, VIYADGRRTAYADSVK, GEAAGTFDV: 570 pM (6 of 6 replicates).
GFDLNEYGIS, VIYADGVRTAYSDSVK, GNVAGTFDA: 610 pM (6 of 6 replicates).
GFDLNEYGIS, VIYADGMRTFYADSVK, GNVAGTFDM: 650 pM (6 of 6 replicates).
GFDLNEYGIS, VIYADGMRTAYADSVK, GEVAGTFDN: 680 pM (6 of 6 replicates).
GFDLNEYGIS, VIYADGKRTFYSDSVK, GNEAGTFDV: 690 pM (6 of 6 replicates).
GFDLEEYGIS, VIYADGSRTAYADSVK, GNVAGTFDS: 710 pM (6 of 6 replicates).
GFDLNEYGIS, VIYADGQRTYYADSVK, GQNAGTFDV: 750 pM (6 of 6 replicates).
GFDLDEYGIS, VIYADGRRTAYADSVK, GETAGTFDV: 1.4 nM (6 of 6 replicates).
GFDLDEYGIS, VIYADGSRTAYADKVK, GNVAGTFDV: 1.6 nM (6 of 6 replicates).
GFDLNEYGIS, VIYADGMRTYYADDVK, GENAGTFDL: 1.6 nM (6 of 6 replicates).
GFDLNEYGIS, VIYADGRRTAYADSVK, GTNAGTFDM: 3.3 nM (6 of 6 replicates).
GFDLNEYGIS, VIYADGVRTAYADDVK, GSNAGTFDI: 3.4 nM (6 of 6 replicates).
GFDLNEYGIS, VIYADGMRTAYSDSVK, GNNAGTFDV: 8.7 nM (6 of 6 replicates).
GFDLNEYGIS, VIYADGRRTFYADSVK, GEAAGTFFL: 10 nM (6 of 6 replicates).
GFQLDEYGIS, VIYADGQRTAYKQKVK, GSDTGLGWF: 16 nM (1 of 6 replicates).
GFDLNEYGIS, VIYADGMRTQYIDSVK, GNQAGTFDS: 28 nM (6 of 6 replicates).
GNDLNEYGIS, VIYADGQRTSYASSVK, GDIRGYFDS: 12 µM (1 of 6 replicates).
GYDLVEYGIS, VIYADGQRTVYADDVK, GNHGGTIDT: nd (0 of 6 replicates).
GFNLDEYGVS, VIYADGKRCQYANTVK, GENAGFFML: nd (0 of 6 replicates).
GKSLDEYGIS, VIYADGQRTSYTNSVK, GLSNFVQIV: nd (0 of 6 replicates).
GDQLDEYGIS, VIYADGMRTMYADSFK, GNKSVNIGI: nd (0 of 6 replicates).
GFSLDEYGIS, VIYADGQRKHYADSVK, GQIDVYYTA: nd (0 of 6 replicates).

Excerpt, the final 5 entries:

CDR-H1,CDR-H2,CDR-H3,apparent Kd,detected
GYDLVEYGIS,VIYADGQRTVYADDVK,GNHGGTIDT,nd,0/6
GFNLDEYGVS,VIYADGKRCQYANTVK,GENAGFFML,nd,0/6
GKSLDEYGIS,VIYADGQRTSYTNSVK,GLSNFVQIV,nd,0/6
GDQLDEYGIS,VIYADGMRTMYADSFK,GNKSVNIGI,nd,0/6
GFSLDEYGIS,VIYADGQRKHYADSVK,GQIDVYYTA,nd,0/6

A sequence measured in both rounds can read differently, since the two assays cover different ranges. In the paper, a design with two or fewer of six values counts as a poor binder. Of ten entries with the parent sequence, four were seen in most replicates (averages 2.2 nM to 240 nM), three in one and three in none, so single entries are noisy. Empty control strains, which show no peptide, gave a signal in 1% of pairings with all heavy chain designs; the median was 120 nM and 95% of these signals were weaker than 7.0 nM. No background was subtracted.